Consider one molecule from patent publication US11236106B2, “Cycloalkane-1,3-diamine derivative” (Daiichi Sankyo Company, Limited, priority 2018, dated 2022).

One test concerns MV-4-11 cells. The conditions noted are these: read-out: GI50, cell growth inhibitory activity, MV-4-11, day 7, cultured 7 days, assigned by order and values, Hydrochloride.
The test system of a further test is MOLM-13 cells. The following applies: read-out: GI50, cell growth inhibitory activity, MOLM-13, day 7, cultured 7 days, assigned by order and values, Hydrochloride.

Counter-ions that a name gives are not always drawn.

What is called GI50 is the concentration that inhibits growth by half. Turning to `COc1nc(N(C)C2CC(NCC3CCC(c4cc(OC)c(OC)nn4)CC3)CC2O)c2cc(CC(F)(F)F)sc2n1` (single isomer, unassigned) [Example 128B, Hydrochloride], the GI50 was found to be 0.201 µM in the test on MV-4-11 cells and 0.501 µM in the test with MOLM-13 cells.
